How the values were obtained:
Test in all cases: pull-down; GST pull-down: GST-FOXP1 or its deletion mutants immobilised on Glutathione Sepharose 4B, incubated with bacterially purified His-RPA32 or His-RPA70 for 4 h at 4 °C
Conditions in all cases: both partners purified
[1] = biological target: T1, GST-tagged FOXP1 Δ431–450 (human, UniProt Q9H334 1-677, Δ431–450)
T1 construct: also called pGEX-4T-1-FOXP1 Δ431–450; source: E. coli, purified
T1 sequence (looked up): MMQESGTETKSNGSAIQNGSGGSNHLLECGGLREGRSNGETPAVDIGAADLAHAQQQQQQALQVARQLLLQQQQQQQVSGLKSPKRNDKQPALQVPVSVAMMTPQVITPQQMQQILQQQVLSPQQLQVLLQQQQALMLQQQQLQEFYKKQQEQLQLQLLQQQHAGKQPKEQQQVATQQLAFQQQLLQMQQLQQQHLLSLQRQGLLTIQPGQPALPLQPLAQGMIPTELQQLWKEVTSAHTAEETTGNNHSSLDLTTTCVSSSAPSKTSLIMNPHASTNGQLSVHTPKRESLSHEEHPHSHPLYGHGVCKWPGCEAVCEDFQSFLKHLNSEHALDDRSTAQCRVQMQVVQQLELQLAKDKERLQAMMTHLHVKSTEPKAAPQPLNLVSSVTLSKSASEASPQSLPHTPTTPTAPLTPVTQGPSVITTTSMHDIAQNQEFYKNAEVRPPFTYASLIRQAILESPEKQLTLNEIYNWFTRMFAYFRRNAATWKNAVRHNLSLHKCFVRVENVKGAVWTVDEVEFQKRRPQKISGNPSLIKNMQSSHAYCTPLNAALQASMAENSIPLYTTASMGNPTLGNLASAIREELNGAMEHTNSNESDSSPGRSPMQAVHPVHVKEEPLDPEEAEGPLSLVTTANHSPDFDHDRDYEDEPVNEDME

[2] = biological target: T2, GST-tagged FOXP1 (wild type, full length) (human, UniProt Q9H334 1-677)
T2 construct: FOXP1, human, full length; Vector pGEX-4T-1; also called GST-FOXP1; pGEX-4T-1-FOXP1; source: E. coli, purified
T2 sequence (looked up): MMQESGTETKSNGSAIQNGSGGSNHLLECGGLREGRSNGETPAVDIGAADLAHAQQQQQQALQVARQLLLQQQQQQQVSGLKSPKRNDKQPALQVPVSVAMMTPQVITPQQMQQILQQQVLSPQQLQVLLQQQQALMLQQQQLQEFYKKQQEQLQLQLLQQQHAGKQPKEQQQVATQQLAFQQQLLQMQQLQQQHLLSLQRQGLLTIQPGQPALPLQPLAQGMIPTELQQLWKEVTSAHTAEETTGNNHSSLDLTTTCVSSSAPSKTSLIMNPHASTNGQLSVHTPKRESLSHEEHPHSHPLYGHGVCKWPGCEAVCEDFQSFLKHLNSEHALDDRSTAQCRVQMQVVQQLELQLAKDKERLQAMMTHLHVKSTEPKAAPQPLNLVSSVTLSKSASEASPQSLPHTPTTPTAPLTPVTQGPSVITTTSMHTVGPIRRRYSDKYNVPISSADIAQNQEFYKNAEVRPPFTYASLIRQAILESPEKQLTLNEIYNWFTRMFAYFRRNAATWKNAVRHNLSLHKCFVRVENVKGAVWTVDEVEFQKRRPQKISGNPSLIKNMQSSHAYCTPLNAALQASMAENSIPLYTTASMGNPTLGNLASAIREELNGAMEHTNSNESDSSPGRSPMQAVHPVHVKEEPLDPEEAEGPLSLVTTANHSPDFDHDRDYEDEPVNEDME

[3] = biological target: T3, GST-tagged FOXP1 Δ451–464 (human, UniProt Q9H334 1-677, Δ451–464)
T3 construct: source: E. coli, purified
T3 sequence (looked up): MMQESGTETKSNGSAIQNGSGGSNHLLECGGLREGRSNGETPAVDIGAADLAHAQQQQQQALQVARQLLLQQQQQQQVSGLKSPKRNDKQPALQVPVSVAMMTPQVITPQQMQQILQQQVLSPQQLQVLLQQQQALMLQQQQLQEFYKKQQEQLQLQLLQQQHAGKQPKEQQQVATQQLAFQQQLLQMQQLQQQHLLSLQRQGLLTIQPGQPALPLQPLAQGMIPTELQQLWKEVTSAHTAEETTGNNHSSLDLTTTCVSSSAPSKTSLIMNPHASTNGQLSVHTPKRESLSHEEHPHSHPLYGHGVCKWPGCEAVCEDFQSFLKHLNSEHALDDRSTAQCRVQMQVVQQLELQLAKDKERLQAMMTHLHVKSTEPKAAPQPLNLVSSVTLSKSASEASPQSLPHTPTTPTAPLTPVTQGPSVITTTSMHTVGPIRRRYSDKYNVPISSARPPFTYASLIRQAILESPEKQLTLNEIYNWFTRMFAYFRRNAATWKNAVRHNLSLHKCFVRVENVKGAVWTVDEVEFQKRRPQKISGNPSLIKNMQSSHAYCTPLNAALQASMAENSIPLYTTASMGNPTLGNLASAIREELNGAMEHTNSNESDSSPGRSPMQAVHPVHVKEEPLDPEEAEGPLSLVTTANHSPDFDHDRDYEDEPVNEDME

Measured: binding result

B1: His-tagged RPA32 (natural protein, human, UniProt P15927 1-270, looked up)
chain: MWNSGFESYGSSSYGGAGGYTQSPGGFGSPAPSQAEKKSRARAQHIVPCTISQLLSATLVDEVFRIGNVEISQVTIVGIIRHAEKAPTNIVYKIDDMTAAPMDVRQWVDTDDTSSENTVVPPETYVKVAGHLRSFQNKKSLVAFKIMPLEDMNEFTTHILEVINAHMVLSKANSQPSAGRAPISNPGMSEAGNFGGNSFMPANGLTVAQNQVLNLIKACPRPEGLNFQDLKNQLKHMSVSSIKQAVDFLSNEGHIYSTVDDDHFKSTDAE
notes: RPA32, human, full length; Vector pet28a; also called His-RPA32; pet28a-RPA32; source: E. coli, purified
binds: all assays above
